Measured values from BindingDB's records for 26827140.

By UniProt entry, the sequences of proteins in these tests, tags left out. Residues count along the entry.
UniProt P22303, 32-614 limits assumed: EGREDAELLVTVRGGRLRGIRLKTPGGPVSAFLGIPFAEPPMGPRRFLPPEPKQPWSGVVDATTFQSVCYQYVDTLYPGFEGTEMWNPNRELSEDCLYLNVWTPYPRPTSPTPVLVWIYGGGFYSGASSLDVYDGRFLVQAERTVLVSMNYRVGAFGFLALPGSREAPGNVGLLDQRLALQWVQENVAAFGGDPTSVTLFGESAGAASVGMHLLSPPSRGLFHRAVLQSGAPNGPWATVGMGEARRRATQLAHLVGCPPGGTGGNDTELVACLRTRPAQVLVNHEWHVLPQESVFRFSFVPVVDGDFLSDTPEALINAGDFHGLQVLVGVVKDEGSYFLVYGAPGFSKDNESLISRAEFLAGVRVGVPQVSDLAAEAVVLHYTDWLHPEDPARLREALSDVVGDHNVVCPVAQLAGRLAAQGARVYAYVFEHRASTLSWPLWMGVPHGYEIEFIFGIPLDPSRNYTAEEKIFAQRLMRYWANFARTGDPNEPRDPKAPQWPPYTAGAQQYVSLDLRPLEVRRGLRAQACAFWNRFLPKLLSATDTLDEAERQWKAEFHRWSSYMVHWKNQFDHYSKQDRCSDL

Target: Acetylcholinesterase (Homo sapiens, UniProt P22303)

BrCC1CN=C(Nc2ccccn2)S1 (stereo unspecified)
IC50: 110 µM
